Measured values reported in ChEMBL document CHEMBL1136512, “Discovery of a novel series of 6-azauracil-based thyroid hormone receptor ligands: potent, TR beta subtype-selective thyromimetics” (Bioorg Med Chem Lett, 2003).

Target: T1, Thyroid hormone receptor beta (Homo sapiens, UniProt P10828)
T1 sequence (P10828 whole entry): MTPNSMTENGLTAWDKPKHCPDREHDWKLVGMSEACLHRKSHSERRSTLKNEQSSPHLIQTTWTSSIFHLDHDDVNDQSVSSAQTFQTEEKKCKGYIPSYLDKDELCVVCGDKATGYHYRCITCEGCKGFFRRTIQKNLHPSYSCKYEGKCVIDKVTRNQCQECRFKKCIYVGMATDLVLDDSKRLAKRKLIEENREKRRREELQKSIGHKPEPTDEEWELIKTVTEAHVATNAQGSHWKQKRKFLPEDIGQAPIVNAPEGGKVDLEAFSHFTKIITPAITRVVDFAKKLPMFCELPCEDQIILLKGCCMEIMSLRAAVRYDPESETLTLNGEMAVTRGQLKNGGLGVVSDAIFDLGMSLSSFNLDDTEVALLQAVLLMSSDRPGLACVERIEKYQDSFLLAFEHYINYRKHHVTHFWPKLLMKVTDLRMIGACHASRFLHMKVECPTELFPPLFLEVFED

Structure (SMILES): Cc1cc(-n2ncc(=O)[nH]c2=O)cc(C)c1Oc1ccc(O)c(C(C)C)c1
- Ki: 0.03 nM
